Reference: patent US20190345138A1, “HETEROCYCLIC AMIDES AS KINASE INHIBITORS” (GlaxoSmithKline Intellectual Property Development Limited, priority 2016, published 2019)
Where two headings read alike, the source gives them in different places.

Biological target: T1, RIP1 kinase (Homo sapiens, UniProt Q13546)
T1 sequence (Q13546 1-375 limits assumed): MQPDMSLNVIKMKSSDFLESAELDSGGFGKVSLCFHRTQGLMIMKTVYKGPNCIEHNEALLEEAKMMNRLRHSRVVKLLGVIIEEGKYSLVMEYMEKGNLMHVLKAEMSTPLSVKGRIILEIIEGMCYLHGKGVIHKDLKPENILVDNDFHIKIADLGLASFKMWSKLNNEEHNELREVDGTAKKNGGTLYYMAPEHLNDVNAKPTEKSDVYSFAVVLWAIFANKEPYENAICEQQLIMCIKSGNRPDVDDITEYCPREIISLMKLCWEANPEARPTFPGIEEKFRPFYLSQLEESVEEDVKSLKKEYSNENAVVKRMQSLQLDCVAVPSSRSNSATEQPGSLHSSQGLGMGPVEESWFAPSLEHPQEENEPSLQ
Assay: fluorescent polarization based binding assay
Conditions: mean of a minimum of 2 experiments

Structure (SMILES) | IC50 (RIP1 kinase, read-out: pIC50 (converted)) [nM] | IC50 (pIC50, RIP1 kinase) [nM]
O=C(C1CCN(c2nccc(-c3ccccc3)n2)CC1)N1N=CCC1c1ccccc1 (racemic) [Example 4, (5-phenyl-4,5-dihydro-1H-pyrazol-1-yl)(1-(4-phenylpyrimidin-2-yl)piperidin-4-yl)methanone] | 1 to 31.6 | 
Cc1nnc(-c2cc(N3CCC(C(=O)N4N=CC[C@H]4c4ccccc4)CC3)ncn2)o1 [Example 129, (S)-(1-(6-(5-methyl-1,3,4-oxadiazol-2-yl)pyrimidin-4-yl)piperidin-4-yl)(5-phenyl-4,5-dihydro-1H-pyrazol-1-yl)methanone] |  | 1 to 31.6
